Measured values reported in publication PMC5833756, “A novel ruthenium complex with xanthoxylin induces S-phase arrest and causes ERK1/2-mediated apoptosis in HepG2 cells through a p53-independent pathway” (Cell Death & Disease, 2018).
Like-named read-outs stand apart in the source and are kept apart here.

Test system: AGP-01

COc1cccc2c1C(=O)c1c(O)c3c(c(O)c1C2=O)C[C@@](O)(C(=O)CO)C[C@@H]3O[C@H]1C[C@H](N)[C@H](O)[C@H](C)O1 [DOX, doxorubicin]
selectivity index (SI) (IC50 MRC5 / IC50 AGP-01): 0.7
selectivity index (SI) (IC50 PBMC / IC50 AGP-01): 2.7
